Laboratory results: US8487131B2 (Sanford-Burnham Medical Research Institute, priority 2009, dated 2013)

Protein sequences, listed by entry. Tags and fused reporters are not part of them.
UniProt Q07820, whole entry: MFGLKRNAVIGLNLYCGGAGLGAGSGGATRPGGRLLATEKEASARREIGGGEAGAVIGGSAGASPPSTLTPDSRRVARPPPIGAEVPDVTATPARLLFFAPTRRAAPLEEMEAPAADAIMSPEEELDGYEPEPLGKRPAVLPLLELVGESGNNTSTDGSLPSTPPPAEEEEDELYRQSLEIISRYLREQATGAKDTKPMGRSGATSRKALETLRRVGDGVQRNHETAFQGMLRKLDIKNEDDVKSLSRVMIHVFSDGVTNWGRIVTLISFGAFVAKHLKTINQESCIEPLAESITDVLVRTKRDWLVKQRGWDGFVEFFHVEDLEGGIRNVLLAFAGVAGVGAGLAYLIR
UniProt Q07817, whole entry: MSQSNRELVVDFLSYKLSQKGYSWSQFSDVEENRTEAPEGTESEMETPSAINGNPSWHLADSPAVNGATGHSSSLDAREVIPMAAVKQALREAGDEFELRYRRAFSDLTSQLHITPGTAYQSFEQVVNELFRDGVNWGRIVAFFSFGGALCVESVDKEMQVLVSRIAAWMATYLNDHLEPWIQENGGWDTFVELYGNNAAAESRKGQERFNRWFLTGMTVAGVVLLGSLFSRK

Columns and labels:
Mcl-1 = Mcl-1 (Homo sapiens, UniProt Q07820); assay: Competitive fluorescence polarization assay (FPA), Mcl-1; assay type: binding; settings: FITC-Bim BH3 peptide displacement
Description: A Bak BH3 peptide (F-BakBH3) ([…]) was labeled at the N-terminus with fluorescein isothiocyanate (FITC) (Molecular Probes) and purified by HPLC. […] The wild-type and mutant Bak BH3 peptides were included in each assay plate as positive and negative controls, respectively. […] IC50 was determined by fitting the experimental data to a sigmoidal dose-response nonlinear regression model (SigmaPlot 10.0.1, Systat Software, Inc., San Jose, Calif., USA). Data reported are mean of three independent experiments±standard error (SE). […] Fluorescence polarization was measured after 10 min.

Bcl-XL = Bcl-XL (Homo sapiens, UniProt Q07817); assay: Isothermal Titration Calorimetry assay (ITC); assay type: binding
[1] = rat
Excerpt: Next, we examined the pharmacological properties of the isomers as chirality could greatly affect such properties due to stereoselective metabolism. To test the pharmacological properties of diastereoisomers 11-14, we determined their in vitro rat plasma stability, rat microsomal stability, and cell membrane permeability (Table 4).

| Structure (SMILES) | IC50 (Mcl-1) [µM] | Kd (Bcl-XL) [µM] | Microsomal Stability (T = 40 min) [1] [%] |
| --- | --- | --- | --- |
| Cc1cc2c(C(=O)NCC(C)c3ccccc3)c(O)c(O)cc2c(O)c1-c1c(C)cc2c(C(=O)NCC(C)c3ccccc3)c(O)c(O)cc2c1O (single isomer, unassigned) [Compound 14] | 0.24 | 2 | 91.6 ± 1.6 |
| Cc1cc2c(C(=O)NC[C@@H](C)c3ccccc3)c(O)c(O)cc2c(O)c1-c1c(C)cc2c(C(=O)NC[C@H](C)c3ccccc3)c(O)c(O)cc2c1O (atropisomer, axis not shown) [Compound 11] |  |  | 89.6 ± 7.0 |
| Cc1cc2c(C(=O)NCC(C)c3ccccc3)c(O)c(O)cc2c(O)c1-c1c(C)cc2c(C(=O)NCC(C)c3ccccc3)c(O)c(O)cc2c1O (single isomer, unassigned) [Compound 12] | 0.18 |  | 83.4 ± 8.1 |
| Cc1cc2c(C(=O)NCC(C)c3ccccc3)c(O)c(O)cc2c(O)c1-c1c(C)cc2c(C(=O)NCC(C)c3ccccc3)c(O)c(O)cc2c1O (single isomer, unassigned) [Compound 13] | 0.24 | 0.4 | 86.3 ± 7.0 |
